Laboratory results taken from US11492346B2, “Benzisoxazole sulfonamide derivatives” (Pfizer Inc., priority 2019, dated 2022).

Protein sequences, listed by entry. Tags and fused reporters are not part of them.
UniProt O95251, whole entry: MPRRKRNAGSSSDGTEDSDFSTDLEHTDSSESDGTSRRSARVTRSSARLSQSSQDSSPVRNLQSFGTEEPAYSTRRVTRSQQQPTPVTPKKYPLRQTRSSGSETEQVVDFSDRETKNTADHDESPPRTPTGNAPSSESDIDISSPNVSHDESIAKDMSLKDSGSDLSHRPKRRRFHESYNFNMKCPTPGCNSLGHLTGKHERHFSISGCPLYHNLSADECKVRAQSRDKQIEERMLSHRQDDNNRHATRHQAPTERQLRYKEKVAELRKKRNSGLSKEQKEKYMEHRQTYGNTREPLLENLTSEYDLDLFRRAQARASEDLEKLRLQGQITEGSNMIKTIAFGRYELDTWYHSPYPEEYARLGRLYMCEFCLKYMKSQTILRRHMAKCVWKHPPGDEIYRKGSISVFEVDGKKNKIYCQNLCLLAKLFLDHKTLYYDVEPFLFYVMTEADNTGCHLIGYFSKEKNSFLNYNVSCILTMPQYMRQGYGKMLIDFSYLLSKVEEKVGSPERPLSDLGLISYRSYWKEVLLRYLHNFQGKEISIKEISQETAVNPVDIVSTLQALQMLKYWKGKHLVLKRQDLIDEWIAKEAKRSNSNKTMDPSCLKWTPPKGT
UniProt Q92794, whole entry: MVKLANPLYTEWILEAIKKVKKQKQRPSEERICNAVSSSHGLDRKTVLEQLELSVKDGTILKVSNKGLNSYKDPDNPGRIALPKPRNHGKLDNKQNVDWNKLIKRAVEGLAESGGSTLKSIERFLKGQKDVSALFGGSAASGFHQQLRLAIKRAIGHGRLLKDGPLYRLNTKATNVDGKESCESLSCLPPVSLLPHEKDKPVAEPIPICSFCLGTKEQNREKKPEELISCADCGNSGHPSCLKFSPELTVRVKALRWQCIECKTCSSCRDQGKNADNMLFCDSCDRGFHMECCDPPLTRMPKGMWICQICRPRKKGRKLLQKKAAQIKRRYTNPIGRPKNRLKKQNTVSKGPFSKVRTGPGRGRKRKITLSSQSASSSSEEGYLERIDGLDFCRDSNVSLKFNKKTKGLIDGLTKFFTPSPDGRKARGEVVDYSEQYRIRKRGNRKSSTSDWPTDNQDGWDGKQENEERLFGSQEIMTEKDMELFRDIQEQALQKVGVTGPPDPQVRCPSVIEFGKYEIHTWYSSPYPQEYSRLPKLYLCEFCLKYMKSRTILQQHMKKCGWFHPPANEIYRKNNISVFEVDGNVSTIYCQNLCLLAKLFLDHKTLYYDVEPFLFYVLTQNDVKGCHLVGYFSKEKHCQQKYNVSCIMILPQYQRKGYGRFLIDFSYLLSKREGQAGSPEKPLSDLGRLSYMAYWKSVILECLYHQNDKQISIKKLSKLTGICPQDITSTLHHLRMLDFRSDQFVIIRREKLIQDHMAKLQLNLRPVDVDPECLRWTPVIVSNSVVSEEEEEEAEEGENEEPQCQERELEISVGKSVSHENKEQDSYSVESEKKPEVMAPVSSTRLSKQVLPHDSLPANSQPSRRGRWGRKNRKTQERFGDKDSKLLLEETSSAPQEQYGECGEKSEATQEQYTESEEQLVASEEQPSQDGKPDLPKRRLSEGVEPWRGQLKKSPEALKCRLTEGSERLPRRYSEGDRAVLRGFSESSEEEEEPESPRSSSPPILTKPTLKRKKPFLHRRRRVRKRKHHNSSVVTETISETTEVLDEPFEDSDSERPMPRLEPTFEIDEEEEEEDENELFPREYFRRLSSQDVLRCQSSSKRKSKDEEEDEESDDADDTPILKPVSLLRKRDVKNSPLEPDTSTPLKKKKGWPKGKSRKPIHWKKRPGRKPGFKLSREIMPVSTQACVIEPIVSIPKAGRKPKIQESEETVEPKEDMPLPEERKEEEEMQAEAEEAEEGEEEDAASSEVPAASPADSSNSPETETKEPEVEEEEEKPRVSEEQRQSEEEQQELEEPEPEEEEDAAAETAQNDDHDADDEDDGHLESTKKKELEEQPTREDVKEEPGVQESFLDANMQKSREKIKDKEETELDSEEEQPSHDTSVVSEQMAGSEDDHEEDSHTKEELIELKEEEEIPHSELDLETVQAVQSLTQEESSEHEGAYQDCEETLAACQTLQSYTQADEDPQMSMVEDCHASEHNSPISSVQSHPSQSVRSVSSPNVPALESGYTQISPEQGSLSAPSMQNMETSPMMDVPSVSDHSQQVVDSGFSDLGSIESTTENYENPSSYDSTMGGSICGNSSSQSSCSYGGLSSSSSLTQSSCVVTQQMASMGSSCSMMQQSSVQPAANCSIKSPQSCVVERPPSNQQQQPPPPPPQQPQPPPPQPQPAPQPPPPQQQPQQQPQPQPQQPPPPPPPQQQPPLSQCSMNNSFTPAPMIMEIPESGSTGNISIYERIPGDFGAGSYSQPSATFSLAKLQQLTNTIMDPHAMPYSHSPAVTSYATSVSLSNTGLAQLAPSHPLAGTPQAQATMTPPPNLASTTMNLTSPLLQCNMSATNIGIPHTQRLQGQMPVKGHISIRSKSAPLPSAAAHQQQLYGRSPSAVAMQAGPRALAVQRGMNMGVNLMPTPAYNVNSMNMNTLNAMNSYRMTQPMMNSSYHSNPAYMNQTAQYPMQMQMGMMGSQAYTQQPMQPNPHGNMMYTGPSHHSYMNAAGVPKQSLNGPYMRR
UniProt Q8WYB5, whole entry: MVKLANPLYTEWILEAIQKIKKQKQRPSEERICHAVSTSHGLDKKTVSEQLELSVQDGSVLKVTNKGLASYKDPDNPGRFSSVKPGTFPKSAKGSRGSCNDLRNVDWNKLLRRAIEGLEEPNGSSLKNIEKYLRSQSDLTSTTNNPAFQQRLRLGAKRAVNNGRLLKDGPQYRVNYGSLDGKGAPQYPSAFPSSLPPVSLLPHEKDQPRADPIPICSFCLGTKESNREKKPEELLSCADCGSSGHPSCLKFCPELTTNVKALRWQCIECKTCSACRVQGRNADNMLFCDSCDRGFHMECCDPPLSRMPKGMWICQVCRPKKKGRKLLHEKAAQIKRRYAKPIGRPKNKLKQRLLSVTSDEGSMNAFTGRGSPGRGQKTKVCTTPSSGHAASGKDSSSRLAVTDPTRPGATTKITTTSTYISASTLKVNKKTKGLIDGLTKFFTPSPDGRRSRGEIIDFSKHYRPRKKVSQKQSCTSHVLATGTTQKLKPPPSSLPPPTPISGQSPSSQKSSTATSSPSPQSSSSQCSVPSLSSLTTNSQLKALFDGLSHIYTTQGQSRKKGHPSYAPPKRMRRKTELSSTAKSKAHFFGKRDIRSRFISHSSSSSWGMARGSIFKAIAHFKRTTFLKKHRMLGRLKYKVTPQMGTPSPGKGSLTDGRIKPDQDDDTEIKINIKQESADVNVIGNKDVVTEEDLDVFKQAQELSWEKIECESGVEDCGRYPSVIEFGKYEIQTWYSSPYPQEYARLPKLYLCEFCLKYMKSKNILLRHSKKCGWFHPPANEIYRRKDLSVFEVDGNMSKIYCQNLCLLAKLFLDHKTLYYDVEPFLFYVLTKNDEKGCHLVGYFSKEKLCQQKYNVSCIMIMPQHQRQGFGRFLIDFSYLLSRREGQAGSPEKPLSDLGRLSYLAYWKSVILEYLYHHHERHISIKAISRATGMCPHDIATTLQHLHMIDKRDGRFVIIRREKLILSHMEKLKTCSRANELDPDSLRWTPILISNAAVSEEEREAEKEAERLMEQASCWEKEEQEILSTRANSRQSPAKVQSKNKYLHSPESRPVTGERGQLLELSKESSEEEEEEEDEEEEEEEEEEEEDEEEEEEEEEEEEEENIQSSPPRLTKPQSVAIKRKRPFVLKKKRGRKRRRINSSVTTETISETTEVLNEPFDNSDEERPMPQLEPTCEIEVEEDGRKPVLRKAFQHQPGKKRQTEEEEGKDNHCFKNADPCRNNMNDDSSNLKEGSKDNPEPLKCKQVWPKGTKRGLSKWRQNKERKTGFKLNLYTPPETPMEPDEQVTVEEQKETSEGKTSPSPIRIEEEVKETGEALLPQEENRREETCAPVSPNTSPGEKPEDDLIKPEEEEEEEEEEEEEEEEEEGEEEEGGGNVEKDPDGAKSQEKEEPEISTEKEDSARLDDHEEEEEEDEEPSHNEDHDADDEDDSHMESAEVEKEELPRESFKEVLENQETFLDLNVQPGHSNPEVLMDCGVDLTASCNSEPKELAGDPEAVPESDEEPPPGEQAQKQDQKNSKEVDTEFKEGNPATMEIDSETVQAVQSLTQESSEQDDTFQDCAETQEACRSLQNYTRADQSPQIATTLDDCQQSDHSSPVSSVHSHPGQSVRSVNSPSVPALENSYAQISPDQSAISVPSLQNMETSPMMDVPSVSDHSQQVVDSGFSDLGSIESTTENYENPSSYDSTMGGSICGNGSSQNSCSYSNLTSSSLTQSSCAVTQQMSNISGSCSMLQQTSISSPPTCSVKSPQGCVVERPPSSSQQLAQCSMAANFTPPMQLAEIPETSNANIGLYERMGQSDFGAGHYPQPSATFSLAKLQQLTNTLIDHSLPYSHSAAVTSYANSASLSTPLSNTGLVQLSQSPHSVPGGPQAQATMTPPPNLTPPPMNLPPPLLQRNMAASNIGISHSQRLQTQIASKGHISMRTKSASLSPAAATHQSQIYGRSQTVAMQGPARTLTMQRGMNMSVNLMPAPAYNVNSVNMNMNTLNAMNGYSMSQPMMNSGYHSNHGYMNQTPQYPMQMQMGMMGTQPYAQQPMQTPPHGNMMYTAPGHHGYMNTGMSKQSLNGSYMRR
UniProt Q92993, whole entry: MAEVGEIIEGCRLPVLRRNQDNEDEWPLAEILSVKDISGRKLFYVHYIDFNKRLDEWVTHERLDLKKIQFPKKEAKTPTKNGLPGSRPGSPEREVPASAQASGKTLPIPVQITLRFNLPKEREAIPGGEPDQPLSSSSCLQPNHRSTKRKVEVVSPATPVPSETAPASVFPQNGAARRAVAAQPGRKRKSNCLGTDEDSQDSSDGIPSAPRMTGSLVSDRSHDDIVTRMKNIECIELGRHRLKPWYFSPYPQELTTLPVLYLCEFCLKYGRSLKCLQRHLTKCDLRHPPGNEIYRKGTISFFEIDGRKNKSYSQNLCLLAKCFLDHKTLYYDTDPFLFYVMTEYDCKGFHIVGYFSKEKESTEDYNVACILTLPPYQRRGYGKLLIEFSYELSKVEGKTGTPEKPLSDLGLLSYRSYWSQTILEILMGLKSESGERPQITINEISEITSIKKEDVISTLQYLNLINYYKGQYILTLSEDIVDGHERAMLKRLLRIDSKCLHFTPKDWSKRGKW
UniProt Q9H7Z6, whole entry: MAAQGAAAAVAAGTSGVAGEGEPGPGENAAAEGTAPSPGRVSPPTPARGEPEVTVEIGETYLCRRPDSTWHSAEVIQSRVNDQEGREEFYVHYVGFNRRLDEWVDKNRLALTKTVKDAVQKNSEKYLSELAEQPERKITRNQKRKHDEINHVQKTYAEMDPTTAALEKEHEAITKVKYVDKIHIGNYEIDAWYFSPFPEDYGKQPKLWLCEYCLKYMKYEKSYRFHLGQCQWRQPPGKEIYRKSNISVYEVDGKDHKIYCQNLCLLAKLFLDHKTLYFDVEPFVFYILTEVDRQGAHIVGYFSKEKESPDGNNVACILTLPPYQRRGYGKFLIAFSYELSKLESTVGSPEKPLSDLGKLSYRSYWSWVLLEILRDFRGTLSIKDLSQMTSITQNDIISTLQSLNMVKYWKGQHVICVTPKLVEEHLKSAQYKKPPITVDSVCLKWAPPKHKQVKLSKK

Experiments:
Format in all cases: biochemical
KAT7 = KAT7 (Homo sapiens (Human), UniProt O95251); assay: KAT assay (SAMDI mass spectrometry), KAT7; conditions: read-out: KAT7 Ki at 1 μM AcCoA;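 further: Baculovirus-expressed enzyme acetylating a histone peptide at room temperature, percent conversion from product and substrate peak areas, Ki from a Morrison tight-binding competitive fit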
KAT6A = KAT6A (Homo sapiens (Human), UniProt Q92794); assay: KAT assay (SAMDI mass spectrometry), KAT6A; conditions: read-out: KAT6a Ki at 1 μM AcCoA;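 further: Baculovirus-expressed KAT6A acetylating histone H3 (1-21) peptide (2 µM), 30-60 min at room temperature, % product conversion fitted to Morrison equation for tight-binding competitive inhibitors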
KAT6B = KAT6B (Homo sapiens (Human), UniProt Q8WYB5); assay: KAT assay (SAMDI mass spectrometry), KAT6B; conditions: read-out: KAT6b Ki at 1 μM AcCoA
KAT5 = KAT5 (Homo sapiens (Human), UniProt Q92993); assay: KAT assay (SAMDI mass spectrometry), KAT5; conditions: read-out: KAT5 Ki at 1 μM AcCoA;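 further: Baculovirus-expressed KAT5 acetylating a histone H4 peptide at room temperature, read as percent conversion to product, Ki from a Morrison tight-binding competitive fit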
KAT8 = KAT8 (Homo sapiens (Human), UniProt Q9H7Z6); assay: KAT assay (SAMDI mass spectrometry), KAT8; conditions: read-out: KAT8 Ki at 1 μM AcCoA

| Structure (SMILES) | Ki (KAT7) [nM] | Ki (KAT6A) [nM] | Ki (KAT6B) [nM] | Ki (KAT5) [nM] | Ki (KAT8) [nM] |
| --- | --- | --- | --- | --- | --- |
| COc1cccc(OC)c1S(=O)(=O)Nc1noc2cc(C(O)c3cocn3)cc(OC)c12 (single isomer, unassigned) | 7510 | – | – | – | – |
| COc1cc(Cn2cccn2)cc2onc(NS(=O)(=O)c3c(C)cccc3F)c12 | 1040 | 17.7 | – | – | – |
| COc1cccc(OC)c1S(=O)(=O)Nc1noc2cc(Cn3ccc(C)n3)cc(OC)c12 | 700 | 46.9 | 50.4 | 13000 | 36700 |
